Only a selection was taken, and hits are over-represented in it overall.
CBFb-RUNX1 inh = blocks binding between human CBF-beta and RUNX1. 230,000 tested, under 10 active. Potency, µM (series often up to 59.8 µM), for the others: at the top dose activity, negative = inhibition, actives largely listed as inhibitors. AID 1477. AlphaScreen CBFb-His/RUNX1-biotin binding, biochemical. Q01196+Q13951; active = well fitted curve in the direction sought with a large enough effect; inconclusive = small, poorly fitted or top-dose-only effect, or effect the other way, or another doubt; inactive = no such curve, though single readings can be large or run the other way; also: % of control where 0% means no effect
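Read-out: AlphaScreen. Format: His-CBF-beta with biotinylated RUNX1 (30 nM each) preincubated 20 min, compound 15 min, Ni-chelate plus streptavidin beads 90 min; room temperature throughout.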
Rango dissoc inh = inhibitors of RanGTP-induced Rango-importin beta complex dissociation; O95149+P62826; Biochemical FRET Rango-importin beta, RanGTP-induced dissociation; Potency, µM (top dose mostly 46.1 µM), for inactives: at the top dose activity change, negative = inhibition; 340,000 tested, 0.071% active; AID 540253; also: potency is read from the fitted curve at half-maximal effect; % of control where 0% means no effect; nearly all actives have a fitted effect of over 45% in size
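Rango/importin beta premix (0.1/0.25 uM final), PBS + 1 mM DTT + 0.02% Tween-20 + 0.1% BSA; cpd 5 min RT; FRET pre-read; + RanGTP-RCC1 (0.6 uM Ran, 2 mM GTP, 0.2 uM RCC1); 45 min RT; FRET post-read, ex 430, em 486/530 nm.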
ClpP mod = qHTS Assay for Activators of ClpP; purified B. subtilis ClpP, FRET peptide cleavage, 20 min; 340,000 tested, 1.9% active; Potency, µM (doses to about 57.5 µM), for the others: at the highest dose activity change, negative = active; ATP-dependent Clp protease proteolytic subunit (Bacillus subtilis (strain 168)), P80244; active = well fitted falling curve with a large enough effect; inconclusive = small, poorly fitted or top-dose-only effect; inactive = no such curve, though single readings can be large or run the other way; also: potency is read from the fitted curve at half-maximal effect; the source files actives as falling curves though it sought activators and does not explain the sign; nearly all actives have a fitted effect of over 65% in size
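Purified B. subtilis ClpP, 10 microg/mL final in Tris/HCl pH8 with KCl, BSA, glycerol and Tween-20, cleaved an Abz/nitrotyrosine-quenched decapeptide. Fluorescence (ex 320, em 430) was read at 0 and 20 min at room temperature. Delta was normalized to 5.8 microM ADEP and DMSO/no-enzyme controls.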
MBNL1 CUG block = MBNL1-poly(CUG) RNA binding inhibition | TR-FRET MBNL1-His/biotin-(CUG)12 binding, 665/545 ratio | Potency, µM (series often up to 57.5 µM), without a hit: at the top dose activity change, negative = inhibition, hits mostly inhibitors | AID 2675 | 280,000 tested, 0.036% active | Q9NR56; active = well fitted inhibition curve with a large enough effect in the signal ratio, with a control signal flat, not every such curve was filed as active; inconclusive = small, poorly fitted or top-dose-only effect, or effect the other way, or a change in a side signal; inactive = no such curve, though single readings can be large or run the other way; the % refers to the signal ratio; also: potency is read from the fitted curve at half-maximal effect; % is scaled to controls: 0 for no effect and ±100 for the full control effect
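TR-FRET readout: Ex 340 nm, 665/545 nm emission ratio, normalized to buffer-only (basal) and MBNL1-(CUG)12 controls. Complex of MBNL1-His with Biotin-(CUG)12, compounds 92 nM–58 uM, incubated 60 min at room temperature.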
Rango-impB inh = prevents formation of the Rango-importin beta complex. Q14974. Rango CFP/YFP FRET sensor + importin beta, 45 min. Potency, µM (doses to about 92.2 µM), for the others: at the highest dose inhibition of complex formation. 340,000 tested, 0.031% active. AID 540263;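 also: potency is read from the fitted curve at half-maximal effect; 0% = DMSO wells and 100% = buffer wells lacking importin beta; nearly all actives have a fitted effect of over 15% in size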
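FRET biosensor (snurportin 1 IBB flanked by EYFP and cerulean), 50 nM, with compound 5 min, then 0.125 microM importin beta in PBS, 1 mM DTT, 0.02% Tween-20, 0.1% BSA. CFP/YFP ratio read after 45 min at room temperature; pre-read flags interference.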
Active calls of the source: *; u = inconclusive; x = not tested or not shown; ! = not active in a repeat. Unless noted, calls follow the shape of the full dose curve.

Sequences of proteins named here, by UniProt entry; tags and fusion partners are left off.
ATP-dependent Clp protease proteolytic subunit (Bacillus subtilis (strain 168)), P80244, UniProt P80244, whole entry, looked up: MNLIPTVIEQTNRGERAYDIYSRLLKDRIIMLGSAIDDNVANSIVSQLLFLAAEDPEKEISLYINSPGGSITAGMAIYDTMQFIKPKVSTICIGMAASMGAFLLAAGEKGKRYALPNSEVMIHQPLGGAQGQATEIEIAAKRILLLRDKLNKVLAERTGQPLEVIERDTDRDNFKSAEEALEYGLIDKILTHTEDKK

1	COc1ccc(S(=O)(=O)N2CCN(C(=S)Nc3ccc(S(N)(=O)=O)cc3)CC2)cc1
2	Cc1cc(C)n(C(=O)c2ccc(NC(=O)C3COc4ccccc4O3)cc2)n1 (stereo unspecified)
3	Cc1cc(C)n(-c2nc3ccccc3[nH]c2=O)n1
4	Cc1cc(C)n(-c2nc3ccccc3nc2Nc2ccc3[nH]c(=O)[nH]c3c2)n1
5	CC(=NNC(=S)N1CCCCC1)c1cccc(C)n1
6	CCOC(=O)C1CCN(S(=O)(=O)c2cc(-c3onc(C)c3C)ccc2C)CC1
7	O=C(Cc1ccc([N+](=O)[O-])cc1)Nc1nnc(C2CC2)s1
8	Cc1ccc(CNC(=O)CCC(=O)Nc2nnc(C3CCCCC3)s2)cc1

compound no.,1,2,3,4,5,6,7,8
CBFb-RUNX1 inh,x,1%,-7%,5%,x,x,-2%,-15%
Rango dissoc inh,-2%,1%,3%,u,-8%,x,-1%,19%
ClpP mod,18µM*,35µM*,28µM*,1%,25µM*,0%,25µM*,28µM*
MBNL1 CUG block,-4%,10%,u,-4%,x,x,0%,3%
Rango-impB inh,-1%,-1%,-3%,u,1%,x,0%,3%

9	CC(C)(C)Cc1nnc(NC(=O)Cc2ccc([N+](=O)[O-])cc2)s1
10	Fc1ccccc1NC(=S)Nc1ccc(Br)cc1
11	Fc1cc(Br)ccc1NC(=S)Nc1ccccc1
12	O=C(C[n+]1cc(Br)cc2ccccc21)c1ccc(O)c(O)c1
13	O=C(CSc1nnc(CNC(=O)c2ccccc2)o1)NCc1ccccc1Cl
14	Cc1cc(NS(=O)(=O)c2ccc(NC(=O)COc3c(C)ccc(C)c3C)cc2)nc(C)n1
15	COc1nnc(-c2ccc(N3CCOCC3)c(NC(=O)C3CCCCC3)c2)c2ccccc12
16	c1ccc2c3c(cc(N4CCOCC4)c2c1)OC1(N2CCOCC2)CCCCC1O3 (stereo unspecified)

compound no.,9,10,11,12,13,14,15,16
CBFb-RUNX1 inh,3%,5%,-7%,x,x,x,4%,3%
Rango dissoc inh,-23%,3%,-7%,x,-1%,x,-9%,13%
ClpP mod,0%,0%,28µM*,-2%,32µM*,1%,-1%,32µM*
MBNL1 CUG block,1%,-10%,-14%,x,3%,x,-8%,14%
Rango-impB inh,4%,0%,-1%,x,-1%,x,1%,3%

17	NOCc1ccccc1
18	COc1cccc(S(=O)(=O)Nc2ccc(C(=O)Nc3ccncc3)cc2)c1
19	O=C(Nc1ccncc1)c1ccc(NS(=O)(=O)c2cccc(F)c2)cc1
20	CC1=CC(C)(C)Nc2ccccc21
21	N#Cc1nc(-c2cccc(Cl)c2)oc1NCc1cccnc1
22	COc1ccc(-c2nc(C#N)c(NCc3cccnc3)o2)cc1OC
23	N#Cc1nc(Cc2ccccc2)oc1NCc1cccnc1
24	CC(C)[C@H](NS(=O)(=O)c1ccccc1)C(=O)OCc1cc([N+](=O)[O-])cc2c1OCOC2

compound no.,17,18,19,20,21,22,23,24
CBFb-RUNX1 inh,1%,3%,5%,-7%,-8%,-2%,-4%,x
Rango dissoc inh,x,-10%,8%,-1%,3%,9%,0%,-4%
ClpP mod,x,-9%,32µM*,28µM*!,2.2µM*,28µM*,28µM*,-6%
MBNL1 CUG block,x,4%,x,17%,11%,7%,-5%,x
Rango-impB inh,x,3%,-5%,u,-1%,1%,2%,-3%

25	CC(C)[C@H](NC(=O)c1ccccc1Cl)C(=O)OCc1cc([N+](=O)[O-])cc2c1OCOC2
26	CC(Sc1nnc(-c2ccncc2)n1C)C(=O)NCC(=O)Nc1ccc(F)c(F)c1F (stereo unspecified)
27	CC(Sc1nnnn1-c1ccc(Cl)cc1)C(=O)NCC(=O)Nc1ccc(F)c(F)c1F (stereo unspecified)
28	O=S(=O)(c1ccc(Cl)cc1)c1nnn2c1nc(NCc1ccccc1)c1sccc12
29	COC(=O)c1c(C#N)c(N)nc2c1CCCC2
30	O=C(CSc1nccn1C1CCCC1)Nc1cccc(F)c1
31	CN(CC(=O)Nc1ccccc1Br)C(=O)c1ccc(-c2ccc(Cl)cc2)o1
32	CCC[N+](C)(C)c1ccc(/C=C/c2ccnc3ccccc23)cc1

compound no.,25,26,27,28,29,30,31,32
CBFb-RUNX1 inh,-6%,x,5%,x,6%,x,x,x
Rango dissoc inh,-9%,x,4%,x,-16%,x,0%,x
ClpP mod,22µM*,1%,25µM*,-4%,28µM*,-3%,32µM*,1%
MBNL1 CUG block,10%,x,u,x,10%,x,0%,x
Rango-impB inh,0%,x,-1%,x,u,x,4%,x

33	COc1ccc(NC(=O)Cn2c(CCC(=O)O)ccc2-c2ccccc2)cc1Cl
34	Cc1cc(C)cc(NC2=C(c3ccccc3)C(=O)c3ccccc32)c1
35	CCC(C)C(NC(N)=O)C(=O)Nc1ccc(C)c(Cl)c1 (stereo unspecified)
36	O=C1CCCc2cc(S(=O)(=O)NCC3CCC(C(=O)NCc4ccc(F)cc4)CC3)ccc2N1 (stereo unspecified)
37	c1coc(C2Nc3ccccc3-c3nc4ccccc4n32)c1 (stereo unspecified)
38	c1ccc(C2Nc3ccccc3-c3nc4ccccc4n32)cc1 (stereo unspecified)
39	Cc1nc2ncnn2c(C)c1CCC(=O)N1CCN(c2ccccc2)CC1
40	COc1cc(C2CC(=O)Nc3cc4c(cc32)OCCO4)cc(Br)c1OC (stereo unspecified)

compound no.,33,34,35,36,37,38,39,40
CBFb-RUNX1 inh,x,x,1%,x,-5%,14%,x,x
Rango dissoc inh,x,x,-13%,x,-7%,3%,x,x
ClpP mod,-10%,-4%,28µM*,-1%,2.8µM*,61%,-4%,-1%
MBNL1 CUG block,x,x,x,x,6%,4%,x,x
Rango-impB inh,x,x,-5%,x,-5%,1%,x,x

Filtered by structure, the compounds so far containing a nitro group on carbon.
7	O=C(Cc1ccc([N+](=O)[O-])cc1)Nc1nnc(C2CC2)s1
9	CC(C)(C)Cc1nnc(NC(=O)Cc2ccc([N+](=O)[O-])cc2)s1
24	CC(C)[C@H](NS(=O)(=O)c1ccccc1)C(=O)OCc1cc([N+](=O)[O-])cc2c1OCOC2
25	CC(C)[C@H](NC(=O)c1ccccc1Cl)C(=O)OCc1cc([N+](=O)[O-])cc2c1OCOC2

compound no.,7,9,24,25
CBFb-RUNX1 inh,-2%,3%,x,-6%
Rango dissoc inh,-1%,-23%,-4%,-9%
ClpP mod,25µM*,0%,-6%,22µM*
MBNL1 CUG block,0%,1%,x,10%
Rango-impB inh,0%,4%,-3%,0%

Other compounds
41	Nc1ccc(C(=O)OCCCc2nc3ccccc3[nH]2)cc1
42	CCSc1nc(-c2ccc(OC)cc2)cc(-c2ccccc2)c1C#N
43	COc1ccc(-c2cc(-c3cccs3)c(C#N)c(SCC(=O)NCc3ccccc3)n2)cc1
44	COc1ccc(-c2cc(-c3cccs3)c(C#N)c(SCC(=O)NCc3ccccc3OC)n2)cc1
45	Cc1ccc(NC(=O)C2CCN(c3nc4ccccc4[nH]3)CC2)cc1Cl
46	CCOC(=O)c1c(-c2ccccc2)csc1NC(=O)/C(C#N)=C/c1ccc(O)c(OC)c1
47	COc1ccc(-c2cc3nc(C)cc(N4CC(C)CC(C)C4)n3n2)cc1 (stereo unspecified)
48	Cn1c(SCC(=O)Nc2nc3ccccc3s2)ncc(C(=O)Nc2ccc(Cl)cc2)c1=O
49	Cc1ccc2nc(NC(=O)CSc3ncc(C(=O)Nc4ccc(F)cc4)c(=O)n3C)sc2c1
50	CN1CCN(C2=Nc3cc(F)ccc3Cc3ccccc32)CC1
51	CN1CCN(C2=Nc3c(Cl)cc(Cl)c4cccc2c34)CC1

compound no.,41,42,43,44,45,46,47,48,49,50,51
CBFb-RUNX1 inh,15%,1%,26%,9%,x,2%,1%,x,x,8%,-26%
Rango dissoc inh,13%,2%,-6%,-5%,x,u,14%,x,x,x,2%
ClpP mod,28µM*,28µM*,2%,40µM*,-2%,28µM*,40µM*,22µM*,-26%,x,3%
MBNL1 CUG block,-1%,43%,6%,-6%,x,-1%,-4%,x,x,-8%,u
Rango-impB inh,4%,-2%,0%,0%,x,u,u,x,x,x,52µM*
